This is a selection; strong and weak results do not stand in their true shares. Calls of active or inactive are those of the source. Cut-off read from the data, not from the text of the source: active = survival enhancement above about 18%; inactive = the rest.
Assay: enhancers of single-cell hiPSC survival, primary screen, ATPlite luminescence (AID 602274);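 note: cells exposed to compounds for 16 hours before the ATP read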
Settings: at 20 µM, stronger effect = higher value, 100% = ROCK inhibitor wells, 0% = DMSO

Row | SMILES | survival enhancement
1 | CCC(C)N(CC(C)C)C(=S)SC(NC(C)=O)C(Cl)(Cl)Cl (stereo not drawn) | inactive: 0.5%
2 | CCOC(=O)c1ccc(NC(=O)C(C)(CCl)SC)cc1 (stereo not drawn) | inactive: -0.1%
3 | CSc1ccc(Nc2c([N+](=O)[O-])cc([N+](=O)[O-])cc2[N+](=O)[O-])cc1 | inactive: -2%
4 | O=C(OC1CN2CCC1CC2)c1cccc([N+](=O)[O-])c1 (stereo not drawn) | inactive: -0.4%
5 | O=C(Nc1ccncc1[N+](=O)[O-])c1ccc([N+](=O)[O-])cc1[N+](=O)[O-] | inactive: 0.6%
6 | O=C(COc1ccccc1)OC1CN2CCC1CC2 (stereo not drawn) | inactive: -1.4%
7 | O=C(O)C(=O)c1ccc(N(CCCl)CCCl)cc1 | inactive: 1.1%
8 | COC(=O)C1(C)COP(=O)(N2CCCC2)OC1 (stereo not drawn) | inactive: 1.6%
9 | COP1(=S)c2c(C)nn(CCC#N)c2N=C(c2ccc(F)cc2)N1C (stereo not drawn) | inactive: 5.4%
10 | O=[N+]([O-])c1ccc(Nc2ccc(Oc3ccc([N+](=O)[O-])cc3[N+](=O)[O-])cc2)c([N+](=O)[O-])c1 | inactive: 0%
11 | Cc1cc(SC(NC=O)C(Cl)(Cl)Cl)ncn1 (stereo not drawn) | inactive: 0.5%
12 | O=P(Nc1ccccn1)(c1cccc2ccccc12)c1cccc2ccccc12 | inactive: 0.1%
13 | CCOC(=O)Nc1cccc([As](=O)(O)O)c1 | inactive: -0.3%
14 | Cc1cc(SC(NC(=O)c2ccccc2)C(Cl)(Cl)Cl)nc(C(C)C)n1 (stereo not drawn) | inactive: -0.6%
15 | COP(=O)(OC)N1CC1c1ccccc1 (stereo not drawn) | inactive: -2.8%
16 | CC1CCNP(=O)(N(CCCl)CCCl)O1 (stereo not drawn) | inactive: 1.1%
17 | O=C(O)C(O)c1ccc(N(CCCl)CCCl)cc1 (stereo not drawn) | inactive: 3%
18 | CCOC(=O)Nc1ccc([As](=O)(O)O)c(O)c1 | inactive: -0.1%
19 | O=[N+]([O-])c1cc([N+](=O)[O-])c(-c2ccn[nH]2)s1 | inactive: -1.4%
20 | CC(C)NC(=O)NP(=O)(Oc1ccccc1)Oc1ccccc1 | inactive: -0.2%
21 | CCN(CC)C(=S)SC(NC=O)C(Cl)(Cl)Cl (stereo not drawn) | inactive: 0.5%
22 | O=C(OC1CN2CCC1CC2)c1cccc2[nH]cnc12 (stereo not drawn) | inactive: -0.2%
23 | COC(=O)C1(C)COP(=O)(N2CCCCCC2)OC1 (stereo not drawn) | inactive: 0.6%
24 | CC(C)c1ccc(OP(=O)(Nc2ccccn2)Oc2ccccc2F)cc1 (stereo not drawn) | inactive: -0.5%
25 | ClCCSc1nnc(-c2cccnc2)o1 | inactive: 8.5%
26 | Cc1ccc2nc3c(c(C)c2c1)CC(C(Cl)Cl)S3 (stereo not drawn) | inactive: 1.7%

Row | SMILES | survival enhancement
27 | Cc1ccc(OP(=O)(Nc2ccc([N+](=O)[O-])cn2)Oc2ccc(C)cc2)cc1 | inactive: -0.2%
28 | [N-]=[N+]=NC1CCCCC1NC(=O)c1cc([N+](=O)[O-])cc([N+](=O)[O-])c1 (stereo not drawn) | inactive: 0.2%
29 | O=[N+]([O-])c1ccc(-c2cc([N+](=O)[O-])c(O)c([N+](=O)[O-])c2)cc1 | inactive: 2.4%
30 | C[As](=O)(O)c1cccc(C(=O)O)c1 | inactive: 0.1%
31 | O=[As](O)(c1ccc(O)cc1)c1ccccc1O | inactive: -0.4%
32 | COc1ccc(N/C(=N/P(=O)(N2CCOCC2)N2CCOCC2)N2CCOCC2)cc1 | inactive: -0.3%
33 | O=[N+]([O-])c1cc(Oc2ccc([N+](=O)[O-])cc2C(F)(F)F)cc([N+](=O)[O-])c1 | inactive: -0.9%
34 | COc1cc(I)ccc1[As](=O)(O)O | inactive: 1%
35 | COc1ccc2nc(NP(=O)(c3ccccc3)c3ccccc3)sc2c1 | inactive: -0.2%
36 | O=P1(N(CCCl)CCCl)Nc2ccccc2N1 | inactive: 2.1%
37 | O=P1(N(CCCl)CCCl)OCCCN1CCCl (stereo not drawn) | inactive: 1.7%
38 | Cc1cc(=O)[nH]c(N[N+](=O)[O-])n1 | inactive: -1%
39 | O=C(OC1CN2CCC1CC2)C12CC3CC(CC(C3)C1)C2 (stereo not drawn) | inactive: -1.5%
40 | Cc1c2c(nc3ccccc13)SC(C(Cl)Cl)C2 (stereo not drawn) | inactive: -2%
41 | CCOP(=O)(Nc1cccc2ccccc12)OCC | inactive: -2%
42 | COc1cc(C2NCCC3(OCCO3)C2(C)C)cc(OC)c1OC (stereo not drawn) | inactive: -0.4%
43 | CCCOP(=S)(Nc1nc(N)cc(=O)[nH]1)OCCC | inactive: 0.8%
44 | Cc1ccc(NCCc2c([N+](=O)[O-])cc([N+](=O)[O-])cc2[N+](=O)[O-])cc1 | inactive: -0.7%
45 | Nc1cccc2c([As](=O)(O)O)cccc12 | inactive: 0.5%
46 | Cc1cccc(OCC(=O)OC2CN3CCC2CC3)c1 (stereo not drawn) | inactive: -0.4%
47 | O=[As](O)(c1cccc(O)c1)c1cccc(O)c1 | inactive: -0.5%
48 | CS(=O)(=O)c1ccc(Cl)c(NC(=O)COC(=O)C(O)(c2ccccc2)c2ccccc2)c1 | inactive: -0.5%
49 | O=[As](O)(O)c1cccnc1 | inactive: -0.3%
50 | O=C(OC1CN2CCC1CC2)c1ccc(Cl)cc1 (stereo not drawn) | inactive: 0%
51 | CN(C(=O)Cc1ccc(Cl)c(Cl)c1)[C@H]1CC[C@@]2(CCCO2)C[C@@H]1N1CCCC1 | inactive: -1.2%
52 | O=[N+]([O-])c1ccc2c(c1)nnn2O | inactive: 6.7%

Row | SMILES | survival enhancement
53 | CN(C)C(=O)c1cc([N+](=O)[O-])cc2c1-c1c(cc([N+](=O)[O-])cc1[N+](=O)[O-])C2=O | inactive: 1.4%
54 | CCOP1(=S)c2c(C)nn(CCC#N)c2N=C(c2ccc(F)cc2)N1C (stereo not drawn) | inactive: -0.4%
55 | CN(C(=O)Cc1ccccc1)[C@@H]1CC[C@]2(CCCO2)C[C@H]1N1CCCC1 | inactive: -0.7%
56 | N#CCCN(C(=O)COC(=O)C(O)(c1ccccc1)c1ccccc1)c1ccc(F)cc1 | inactive: 1.1%
57 | NC(=O)Nc1ccc([As](=O)(O)O)cc1 | inactive: 3.3%
58 | O=C(O)COc1ccc([As](=O)(O)O)cc1[N+](=O)[O-] | inactive: -0.6%
59 | Nc1ccccc1[As](=O)(O)c1ccccc1 | inactive: -0.6%
60 | CS(=O)(=O)c1cc([N+](=O)[O-])c2no[n+]([O-])c2c1 | inactive: -0.5%
61 | O=P(Nc1nccs1)(Oc1ccccc1)Oc1ccccc1 | inactive: -0.3%
62 | O=P(Nc1nccs1)(c1ccccc1)c1nc2ccccc2s1 (stereo not drawn) | inactive: -1%
63 | CCOP1(=S)c2c(C)nn(CCC#N)c2N=C(c2ccccc2F)N1C (stereo not drawn) | inactive: -2.4%
64 | Cc1ccc(OCC(=O)OC2CN3CCC2CC3)cc1 (stereo not drawn) | inactive: 1.2%
65 | O=[As](O)(c1cccs1)c1cccs1 | inactive: -0.3%
66 | NS(=O)(=O)c1cccc(NC(=O)COC(=O)C(O)(c2ccccc2)c2ccccc2)c1 | inactive: 6.2%
67 | O=P1(Nc2ccc(Br)cn2)COc2ccccc2OC1 | inactive: 0.2%
68 | Nc1cccc([As](=O)(O)c2ccccc2)c1 | inactive: 0.1%
69 | O=P1(Nc2ncccn2)COc2ccccc2OC1 | inactive: -2.3%
70 | Cc1ccc(S(=O)(=O)N(CCCN)CCCc2c(C)nc(N)[nH]c2=O)cc1 | inactive: 0.9%
71 | CCCC1OP(=O)(Nc2ccccc2)OCC1CC (stereo not drawn) | inactive: 1.8%
72 | O=C(/C=C/c1ccccc1)OC1CN2CCC1CC2 (stereo not drawn) | inactive: -0.6%
73 | Cc1ccc(C(=O)OC2CN3CCC2CC3)cc1 (stereo not drawn) | inactive: 0.3%
74 | CC1CCC(C(C)C)C(OP(=O)(Nc2ccccn2)c2ccccc2)C1 (stereo not drawn) | inactive: -0.6%
75 | Cc1nn(-c2ccccc2)c2c1P(=O)(N1CCOCC1)N(C)C(c1ccccc1)=N2 (stereo not drawn) | inactive: 0.6%
76 | CC1(CBr)Cn2c(nc3ccccc3c2=O)S1 (stereo not drawn) | inactive: -0.8%
77 | CN(C(=O)Cc1ccc(Cl)c(Cl)c1)[C@@H]1CCCC[C@H]1N1CCCC1 | inactive: -0.6%
78 | CC(C)/C=N\N=C(\N)N[N+](=O)[O-] | inactive: -0.5%

Row | SMILES | survival enhancement
79 | COc1ccccc1CNC(=O)COC(=O)C(O)(c1ccccc1)c1ccccc1 | inactive: -0.5%
80 | CC(C)(C)C(=O)NC(Sc1ncccn1)C(Cl)(Cl)Cl (stereo not drawn) | inactive: 0.1%
81 | Clc1n[nH]nc1-c1nn[nH][15n]1 | inactive: -1.4%
82 | O=P1(N(CCCl)CCCl)NCCC(C(F)(F)F)O1 (stereo not drawn) | inactive: 4.3%
83 | CCOP(=O)(Nc1ccc(C)cn1)OCC | inactive: 0.8%
84 | CN(CCCl)Cc1cc(Cl)c(NC2=NCCN2)c(Cl)c1 | inactive: -1.1%
85 | CCOP(=O)(NC(=NC(C)c1ccccc1)NC(C)c1ccccc1)OCC (stereo not drawn) | inactive: -0.1%
86 | CCC1=CC2Cc3nc4ccc(Cl)cc4c(N)c3C(C1)C2 (stereo not drawn) | inactive: -0.4%
87 | O=P1(Nc2ccccn2)COc2ccccc2OC1 | inactive: 5.1%
88 | c1nnnn1CCn1cnnn1 | inactive: -3%
89 | O=P(Nc1nccs1)(c1ccccc1)c1ccccc1 | inactive: 0.5%
90 | CC(C)C(=O)NC(Sc1ccccc1)C(Cl)(Cl)Cl (stereo not drawn) | inactive: -0.7%
91 | C(Cc1nn[nH]n1)Cc1nn[nH]n1 | inactive: 0%
92 | Nc1ccc([As](=O)(O)c2ccc([N+](=O)[O-])cc2)cc1 | inactive: 2.3%
93 | O=C(OC1CN2CCC1CC2)c1cccc(Cl)c1 (stereo not drawn) | inactive: 2.7%
94 | CC(=O)NC(SC(=S)N(C)C)C(Cl)(Cl)Cl (stereo not drawn) | inactive: 0.8%
95 | O=[N+]([O-])c1ncn(CCn2cnc([N+](=O)[O-])n2)n1 | inactive: -0.6%
96 | O=[N+]([O-])c1ccc(O)c(/C=N/Nc2ccc([N+](=O)[O-])cc2[N+](=O)[O-])c1 | inactive: -0.7%
97 | O=[As](O)(c1ccccc1)c1ccc(O)cc1 | inactive: -0.1%
98 | C[C@H]1OP(=O)(Oc2ccccc2)[C@H](O)[C@H](O)[C@H]1N=[N+]=[N-] (stereo partly drawn) | inactive: 11.9%
99 | O=P(Nc1nc2ccccc2s1)(c1ccccc1)c1ccccc1 | inactive: -0.2%
100 | COc1ccc(N)c([N+](=O)[O-])c1[N+](=O)[O-] | inactive: -0.4%
101 | Nc1ccc(CCCCOc2ccccc2)cc1 | inactive: -0.2%
102 | O=P(Nc1ccccn1)(c1ccc(Br)cc1)c1ccc(Br)cc1 | inactive: -2.5%
103 | O=c1c2cc([N+](=O)[O-])ccc2[nH]c2c([N+](=O)[O-])cc([N+](=O)[O-])cc12 | inactive: -2.6%

Reference: PubChem BioAssay AID602274 (Sanford-Burnham Center for Chemical Genomics, 2012)
